Molecules are shown by their SMILES. Read-outs that look alike come from different tables or passages of the source.

Sequences of proteins named here, by UniProt entry; tags and fusion partners are left off. A change or cut given only in a name is not applied to a line headed by its entry.
UniProt Q00537: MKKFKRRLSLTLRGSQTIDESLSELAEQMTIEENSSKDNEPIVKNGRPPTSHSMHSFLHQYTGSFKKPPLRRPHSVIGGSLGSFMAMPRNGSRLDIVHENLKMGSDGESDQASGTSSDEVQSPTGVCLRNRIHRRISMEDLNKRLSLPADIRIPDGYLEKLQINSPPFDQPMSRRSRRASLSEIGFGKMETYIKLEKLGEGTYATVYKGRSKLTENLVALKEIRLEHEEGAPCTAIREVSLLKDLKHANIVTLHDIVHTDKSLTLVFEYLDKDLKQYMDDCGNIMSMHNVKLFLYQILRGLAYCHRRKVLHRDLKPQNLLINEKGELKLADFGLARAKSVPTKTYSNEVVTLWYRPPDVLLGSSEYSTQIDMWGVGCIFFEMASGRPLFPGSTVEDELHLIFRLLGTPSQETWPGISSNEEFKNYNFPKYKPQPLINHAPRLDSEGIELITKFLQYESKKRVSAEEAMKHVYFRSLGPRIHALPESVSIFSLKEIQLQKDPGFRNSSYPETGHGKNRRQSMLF
UniProt Q07002: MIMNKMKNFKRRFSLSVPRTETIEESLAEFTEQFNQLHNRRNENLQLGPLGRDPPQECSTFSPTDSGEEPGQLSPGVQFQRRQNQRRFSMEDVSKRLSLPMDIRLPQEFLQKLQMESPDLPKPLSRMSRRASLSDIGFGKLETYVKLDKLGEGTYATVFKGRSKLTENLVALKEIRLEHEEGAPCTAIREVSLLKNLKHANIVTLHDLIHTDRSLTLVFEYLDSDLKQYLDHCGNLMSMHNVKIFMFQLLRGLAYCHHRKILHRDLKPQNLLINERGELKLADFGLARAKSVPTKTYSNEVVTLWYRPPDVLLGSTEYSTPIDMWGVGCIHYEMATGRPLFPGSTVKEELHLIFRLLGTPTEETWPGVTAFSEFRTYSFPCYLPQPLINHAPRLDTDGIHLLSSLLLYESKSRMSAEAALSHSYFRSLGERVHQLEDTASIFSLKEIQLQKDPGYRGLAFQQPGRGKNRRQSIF
UniProt O94921: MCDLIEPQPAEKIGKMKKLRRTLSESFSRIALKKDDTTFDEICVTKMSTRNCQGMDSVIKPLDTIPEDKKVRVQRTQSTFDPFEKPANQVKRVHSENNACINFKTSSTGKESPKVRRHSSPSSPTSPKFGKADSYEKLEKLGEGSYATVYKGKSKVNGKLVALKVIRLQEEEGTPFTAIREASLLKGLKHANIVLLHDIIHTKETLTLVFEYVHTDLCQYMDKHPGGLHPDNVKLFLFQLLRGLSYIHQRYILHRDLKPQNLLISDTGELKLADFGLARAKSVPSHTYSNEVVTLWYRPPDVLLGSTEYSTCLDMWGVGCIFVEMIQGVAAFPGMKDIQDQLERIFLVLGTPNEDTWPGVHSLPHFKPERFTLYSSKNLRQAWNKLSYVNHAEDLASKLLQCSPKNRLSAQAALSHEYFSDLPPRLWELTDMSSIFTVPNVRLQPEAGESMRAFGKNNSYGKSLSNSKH

For one assay, the system named is DAOY cells. Type of assay: cell-based. The note with it: Homo sapiens, read-out: MTT: IC50 of the proliferation assay.
In another assay the test system is BT-16 cells. Type of assay: cell-based. The note with it: BT-16, read-out: MTT: IC50 of the proliferation assay.
A further assay has as its system BT-12 cells. Type of assay: cell-based. Particulars: Homo sapiens, BT-12, read-out: MTT: IC50 of the proliferation assay.
The subject of the next assay is MON cells. Put plainly: cells. Particulars: read-out: MTT: IC50 of the proliferation assay.
Assay [1] has as its system D283 cells. Type of assay: cell-based. Particulars: D283, read-out: MTT: IC50 of the proliferation assay.
The next assay addresses CDK17/cyclin Y (Homo sapiens, UniProt Q00537). Put plainly: biochemical. The note with it: read-out: % Inhibition Avg.
The target in the next assay is CDK18/cyclin Y (Homo sapiens, UniProt Q07002). Put plainly: biochemical. Particulars: read-out: % Inhibition Avg.
For a further assay, the target named is CDK14 (PFTK1)/cyclin Y (Homo sapiens, UniProt O94921). Put plainly: biochemical. Particulars: read-out: % Inhibition Avg.
The test system of assay [2] is D283 cells. Put plainly: PrestoBlue Cell Viability assay. Type of assay: cell-based. The note with it: D283, read-out: PB: IC50 of the PrestoBlue Viability assay. As for the experimental part: Cell viability was assessed using the Presto Blue™ Cell Viability reagent (Thermo Fisher Scientific, Carlsbad, CA, USA) following the manufacturer’s instructions. Cells were plated in 96-well plates at the same densities described above for the proliferation assay. The fluorescence was measured after 24, 48, 72, and 96 h at concentrations ranging from 0.001 to 10 µM of the inhibitor. All assays were performed in triplicate.

For the molecule `COc1ccc2c(c1)[C@]1(C[C@H]1c1ccc3c(/C=C/c4ccc(CN5C[C@@H](C)O[C@@H](C)C5)cc4)n[nH]c3c1)C(=O)N2` [CFI-400945, (1r,2s).2-(3-((e).4-(((cis).2,6-dimethylmorpholino)methyl)styryl). 1h.Indazol-6-yl)-5′-methoxyspiro[cyclopropane-1,3′-indolin]-2′-one], the IC50 in the assay with DAOY cells was determined as 47.1 nM; with BT-16 cells, 3300 nM; in the assay with BT-12 cells it was 7250 nM; with MON cells it was 67.4 nM; with D283 cells [1], 71 nM.

For `O=C(c1ccc(/C=C/c2n[nH]c3ccccc23)cc1)N1CCNCC1` [KW-2449], the inhibition at 10 µM at CDK17/cyclin Y worked out at 97%; on CDK18/cyclin Y, 88%; at CDK14 (PFTK1)/cyclin Y, 66%.

Consider `COc1c(Nc2cc(C)[nH]n2)nc(Sc2ccc(S(=O)(=O)Cc3cccc([N+](=O)[O-])c3F)cc2F)nc1N1CCOCC1` [centrinone], for which the IC50 in the assay with DAOY cells turned out to be 1250 nM; with BT-16 cells it was 1560 nM; in the assay with BT-12 cells it was 3880 nM; with MON cells, 1840 nM; in the assay on D283 cells [2] it was 6650 nM; in the assay on D283 cells [1], 6950 nM.

For the origin of these results see article PMC6540285, “Evaluation of Protein Kinase Inhibitors with PLK4 Cross-Over Potential in a Pre-Clinical Model of Cancer” (International Journal of Molecular Sciences, 2019).
